In PubChem BioAssay (NCI):
This is a selection; strong and weak results do not stand in their true shares. Some structures show a salt or complex split into parts, the way the source records it. Activity calls are given as the source filed them. Cut-off read from the data, not from the text of the source: active = growth inhibition above about 70%; inactive = the rest.

Columns and labels:
[1] = NCI Yeast Anticancer Drug Screen. Data for the rad50 strain (AID 155);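 note: 0% = growth of vehicle-only cultures of the same strain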; conditions: S. cerevisiae rad50 strain growth inhibition; at 50.0 µM; stronger effect = higher value
[2] = NCI Yeast Anticancer Drug Screen. Data for the mec2-1 strain (AID 157); conditions: S. cerevisiae mec2-1 strain, at 50.0 µM, stronger effect = higher value
[3] = NCI Yeast Anticancer Drug Screen. Data for the sgs1 mgt1 strain (AID 161);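 note: 0% = growth of cultures given vehicle only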; conditions: S. cerevisiae sgs1 mgt1 strain, at 50.0 µM, stronger effect = higher value
[4] = NCI Yeast Anticancer Drug Screen. Data for the cln2 rad14 strain (AID 165);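 note: 0% = growth equal to vehicle treated cultures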; conditions: S. cerevisiae cln2 rad14 strain, at 50.0 µM, stronger effect = higher value
[5] = NCI Yeast Anticancer Drug Screen. Data for the bub3 strain (AID 167); conditions: S. cerevisiae bub3 mutant strain, at 50.0 µM, stronger effect = higher value
[6] = NCI Yeast Anticancer Drug Screen. Data for the mlh1 rad18 strain (AID 175); conditions: S. cerevisiae mlh1 rad18 strain growth inhibition; at 50.0 µM; stronger effect = higher value

Measured: growth inhibition

NCCN.[Co+3].[K+].[N-]=[N+]=N.[N-]=[N+]=[N-].[N-]=[N+]=[N-].[N-]=[N+]=[N-]
inactive: [1] 25.2% | [2] 50.5% | [3] 44.7% | [4] 42.2% | [5] 44.9% | [6] 37.1%

[C-]#N.[PtH+].c1ccc([PH+](c2ccccc2)c2ccccc2)cc1.c1ccc([PH+](c2ccccc2)c2ccccc2)cc1
inactive: [1] -0.65% | [2] 4.1% | [3] -16.8% | [4] -7.8% | [5] -3% | [6] -25.6%

CC1CCCCCN1C.O=[N+]([O-])c1cc([N+](=O)[O-])c(O)c([N+](=O)[O-])c1
inactive: [1] 4.8% | [2] -9.5% | [3] 5.45% | [4] 18.8% | [5] -6.2% | [6] 27.9%

O=[N+]([O-])c1cc([N+](=O)[O-])c(O)c([N+](=O)[O-])c1.c1cncc(N=Nc2cccnc2)c1
inactive: [1] 9.85% | [2] 19.4% | [3] 40.9% | [4] 38.3% | [5] 18.6% | [6] 35%

CCP1(=O)Nc2ccc(C)cc2N1 (stereo unspecified)
inactive: [1] -4.8% | [2] 13% | [3] -11.4% | [4] 27.2% | [5] -21.6% | [6] -12%

CCN(CC)CCOC(=O)C(O)(c1ccc(C)cc1)C1CCCCC1 (stereo unspecified)
inactive: [1] 0.15% | [2] 2.7% | [3] -0.45% | [4] -22.2% | [5] 4.25% | [6] 4.8%

CN(C)Cc1cccs1.O=[N+]([O-])c1cc([N+](=O)[O-])c(O)c([N+](=O)[O-])c1
inactive: [1] 3.9% | [2] 11.1% | [3] -0.95% | [4] 7% | [5] -1.55% | [6] -25.6%

CC(CCO)NC1CCCC1.O=[N+]([O-])c1cc([N+](=O)[O-])c(O)c([N+](=O)[O-])c1
inactive: [1] 39% | [2] -3.3% | [3] 28.8% | [4] -2.55% | [5] 0.05% | [6] 13.8%

CN1C2CCCCCCC21.O=[N+]([O-])c1cc([N+](=O)[O-])c(O)c([N+](=O)[O-])c1
inactive: [1] 4.6% | [2] -7.05% | [3] 8.05% | [4] 8.5% | [5] 4.2% | [6] 20.4%

CN1C2CC(O)CC1C1OC12.O=[N+]([O-])c1cc([N+](=O)[O-])c(O)c([N+](=O)[O-])c1
inactive: [1] -19.4% | [2] -4.2% | [3] -15.2% | [4] -28.3% | [5] -0.7% | [6] -4.3%

COc1ccc([N+](=O)[O-])cc1[N+](=O)[O-]
inactive: [1] -21.6% | [2] -5.3% | [3] 0.35% | [4] -36.2% | [5] -3.65% | [6] 15.2%

NCc1ccccc1-c1ccccc1.O=[N+]([O-])c1cc([N+](=O)[O-])c(O)c([N+](=O)[O-])c1
inactive: [1] 35.5% | [2] 20.8% | [3] 32.4% | [4] 24.1% | [5] -0.45% | [6] 23.9%

CCP1(=O)Nc2ccccc2N1
inactive: [1] 27.1% | [2] -8.95% | [3] -1.65% | [4] -61.9% | [5] -1.55% | [6] -1.1%

CCN(CC)CCOC(=O)C(O)(c1ccccc1)c1ccc(C)cc1C (stereo unspecified)
inactive: [1] 15% | [2] -10% | [3] -5.3% | [4] -16.4% | [5] -11.3% | [6] 14%

Cc1cn(C2CC3O[P@](C)(=O)OCC3O2)c(=O)[nH]c1=O (stereo partly specified)
inactive: [1] 10.8% | [2] 2.3% | [3] 6.3% | [4] 12.2% | [5] 13.8% | [6] 8.9%

CC1CCCCN2CCCC12.O=[N+]([O-])c1cc([N+](=O)[O-])c(O)c([N+](=O)[O-])c1
inactive: [1] 32% | [2] 4.5% | [3] 31.5% | [4] 18.6% | [5] -2.15% | [6] 7.9%

CCN(CC)CCOC(=O)C(O)(c1ccccc1)c1cccc(C)c1C (stereo unspecified)
inactive: [1] -14.5% | [2] 3.75% | [3] -8.75% | [4] -32.8% | [5] -2.3% | [6] 4%

N=C(N)N(N)[N+](=O)[O-]
inactive: [1] 28.8% | [2] 7.3% | [3] 23.9% | [4] 30.4% | [5] -14.3% | [6] 4.9%

COc1cnc2ccccc2n1.O=[N+]([O-])c1cc([N+](=O)[O-])c(O)c([N+](=O)[O-])c1
inactive: [1] 50.4% | [2] 9.1% | [3] 36.6% | [4] -3.45% | [5] 2.6% | [6] 10%

COC(=O)C(O)(c1ccccc1)c1ccccc1
inactive: [1] -0.45% | [2] -6.65% | [3] -10.1% | [4] -19.8% | [5] 11.9% | [6] -6.5%

CC(O)CNC1CCCC1.O=[N+]([O-])c1cc([N+](=O)[O-])c(O)c([N+](=O)[O-])c1
inactive: [1] -7.15% | [2] 9.6% | [3] -0.8% | [4] -45.8% | [5] -5.95% | [6] -4.25%

N/C(=N\[N+](=O)[O-])N(N)CCN(N)/C(N)=N/[N+](=O)[O-]
inactive: [1] 6.75% | [2] 12.7% | [3] 5.7% | [4] 9.7% | [5] 11.7% | [6] 32.3%

O=[N+]([O-])c1ncn(F)c1[N+](=O)[O-]
inactive: [1] 15.9% | [2] 12.4% | [3] 15.7% | [4] -1.1% | [5] 12.1% | [6] 15.1%

O=[N+]([O-])c1cccc([N+](=O)[O-])c1O
inactive: [1] 41.9% | [2] -14.5% | [3] -15.7% | [4] -55.5% | [5] -24.1% | [6] -6.6%

O=[N+]([O-])c1cc([N+](=O)[O-])c(O)c([N+](=O)[O-])c1.OCCCN=C1CCCCC1
inactive: [1] 49.1% | [2] 9.05% | [3] 36.5% | [4] -20.6% | [5] 0.05% | [6] 29.4%

CC(CCl)N1CCCCCC1C.O=[N+]([O-])c1cc([N+](=O)[O-])c(O)c([N+](=O)[O-])c1
inactive: [1] 13.8% | [2] 0.75% | [3] -6.15% | [4] -12.2% | [5] 0.1% | [6] 20.3%

O=[N+]([O-])c1cc([N+](=O)[O-])c(O)c([N+](=O)[O-])c1.c1ccc(C2CN2)cc1
inactive: [1] 40% | [2] -2.85% | [3] 27.6% | [4] 19.1% | [5] -6.95% | [6] 25.2%

ClCCCc1ccncc1.O=[N+]([O-])c1cc([N+](=O)[O-])c(O)c([N+](=O)[O-])c1
inactive: [1] -3.3% | [2] -0.55% | [3] 6.65% | [4] -1.35% | [5] -0.95% | [6] -11.9%

CCOP(=O)(O)CC.[Eu]
inactive: [1] -2.4% | [2] -0.15% | [3] -3.45% | [4] -18.9% | [5] -17.6% | [6] 8.1%

N/C(=N\Nc1c([N+](=O)[O-])cc([N+](=O)[O-])cc1[N+](=O)[O-])c1cc([N+](=O)[O-])cc([N+](=O)[O-])c1
inactive: [1] 26.1% | [2] -12.1% | [3] 14.7% | [4] -20.2% | [5] -1.6% | [6] -2.5%

CN1CCC(O)(c2ccccc2)CC1.O=[N+]([O-])c1cc([N+](=O)[O-])c(O)c([N+](=O)[O-])c1
inactive: [1] 40.1% | [2] 17.7% | [3] 3.35% | [4] 5.9% | [5] -1.45% | [6] 37.8%

O=C(Nc1c([N+](=O)[O-])cc([N+](=O)[O-])cc1[N+](=O)[O-])C(=O)Nc1c([N+](=O)[O-])cc([N+](=O)[O-])cc1[N+](=O)[O-]
inactive: [1] 9.15% | [2] -0.15% | [3] 27.9% | [4] 21.4% | [5] -9.55% | [6] -8.55%

NCCO.O=[N+]([O-])c1cc([N+](=O)[O-])c(O)c([N+](=O)[O-])c1
inactive: [1] -26.2% | [2] 11.5% | [3] -0.25% | [4] -40.4% | [5] 11.9% | [6] -4.3%

Nc1cc([N+](=O)[O-])cc([N+](=O)[O-])c1O
inactive: [1] 3.65% | [2] 33.1% | [3] 5.5% | [4] -13.6% | [5] 4.1% | [6] 23.4%

CCCCNCCO.O=[N+]([O-])c1cc([N+](=O)[O-])c(O)c([N+](=O)[O-])c1
inactive: [1] -2.2% | [2] 7.65% | [3] -8% | [4] -39.5% | [5] -10.7% | [6] 5.85%

Cc1ccc2c(ccc3cc(C)ccc32)c1.O=C1c2cc([N+](=O)[O-])ccc2-c2c1cc([N+](=O)[O-])cc2[N+](=O)[O-]
inactive: [1] 21.6% | [2] 12.7% | [3] 2.05% | [4] 4.2% | [5] -1.2% | [6] 32.7%
